Curated experimental data: melting point values

Data: OPERA 2.9 data sets, kmansouri/OPERA on GitHub.

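OPERA's authors assembled the values from existing databases and did not measure them anew. A listed value is a point estimate from one report or more. Method and conditions are not stated for these values. A value may pool stereoisomers or salt forms, and the file does not say which form was measured. Unmarked limits or estimates from the upstream databases cannot be ruled out.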

Melting points are in °C.
The databases behind each value are named after "via".

- NC(=O)NN=Cc1ccccc1O [Salicylaldehyde, semicarbazone]: MP 233 °C (via OCHEM)
- Clc1ccccc1-c1ncn[nH]1 [5-(2-chlorophenyl)-1H-1,2,4-triazole]: MP 155 °C (via OCHEM)
- COc1ccccc1C(C)O (centres undefined) [1-(2-Methoxyphenyl)ethan-1-ol]: MP -85.1 °C (via OCHEM)
- c1ccc(Nc2nc3ccccc3s2)cc1 [Anilinobenzothiazole]: MP 140 °C (via OCHEM)
- O=c1c2ccccc2[nH]c2ccc(O)cc12 [2-Hydroxy-10H-acridin-9-one]: MP 320 °C (via OCHEM)
- O=C1C=CC(=O)N1CCc1ccccc1 [Maleimide, N-phenethyl-]: MP 110 °C (via OCHEM)
- O=C(O)c1ccc(S(=O)(=O)C(F)F)cc1 [4-(Difluoromethanesulfonyl)benzoic acid]: MP 233 °C (via OCHEM)
- Nc1cc(F)ccc1C(F)(F)F [5-Fluoro-2-(trifluoromethyl)aniline]: MP 30.5 °C (via OCHEM)
- Cc1nsc(Nc2ccccc2)c1C#N [5-anilino-3-methylisothiazole-4-carbonitrile]: MP 173 °C (via OCHEM)
- O=S(=O)(O)c1cccc2c(S(=O)(=O)O)cccc12 [1,5-Naphthalenedisulfonic acid]: MP 242.5 °C (via eChemPortal)
- NCC(=O)NCC(=O)NCC(=O)O [Glycyl-glycyl-glycine]: MP 246 °C (via PubChem)
- Nc1ccc(S(=O)(=O)Nc2cccc(C(F)(F)F)c2)cc1 [4-Amino-N-[3-(trifluoromethyl)phenyl]benzene-1-sulfonamide]: MP 114 °C (via OCHEM)
- O=C(Nc1ccc2nn(C3CCCC3)nc2c1)c1ccc(Cl)cc1 [4-Chloro-N-(2-cyclopentyl-2H-benzotriazol-5-yl)benzamide]: MP 180 °C (via OCHEM)
- CC(C)(C)OC(=O)N1CCC(CC#N)CC1 [tert-Butyl 4-(cyanomethyl)piperidine-1-carboxylate]: MP 73 °C (via OCHEM)
- O=C(O)c1cccc(NS(=O)(=O)c2cc(Cl)ccc2Cl)c1 [3-[(2,5-Dichlorobenzene-1-sulfonyl)amino]benzoic acid]: MP 218 °C (via OCHEM)
- Nn1c(S)nnc1-c1ccccc1Cl [4-Amino-5-(2-chlorophenyl)-4H-1,2,4-triazole-3-thiol]: MP 112 °C (via OCHEM)
- CC1=[N+](C)c2ccc3ccccc3c2C1(C)C.Cc1ccc(S(=O)(=O)[O-])cc1: MP 211 °C (via eChemPortal)
- CCCCc1ccc(CC(=O)O)cc1 [(4-butylphenyl)acetic acid]: MP 79 °C (via OCHEM)
- [NH-]S(=O)(=O)c1ncccc1OCC(F)(F)F.[Na+]: MP 248.6 °C (via eChemPortal)
- Nc1ccccc1C(=O)Nc1cccc(Cl)c1 [2-amino-N-(3-chlorophenyl)benzamide]: MP 133 °C (via OCHEM)
- CN(C)CCCN1c2ccccc2Sc2cccnc21.Cl [Prothipendyl hydrochloride]: MP 110 °C (via OCHEM)
- CC(=O)Nc1cc(C(=O)O)ccc1C [3-acetamido-4-methylbenzoic acid]: MP 278 °C (via OCHEM)
- Cc1ccc(Nc2nc(Nc3ccc(C)cc3)c(N=Nc3ccccc3C(F)(F)F)c(C)c2C#N)cc1: MP 247.1 °C (via eChemPortal)
- NC(=O)COc1cccc(C(=O)O)c1 [3-(2-amino-2-oxoethoxy)benzoic acid]: MP 224 °C (via OCHEM)
- CCCCCCCCCCCCCCCCCC(=O)N[C@@H](CO)[C@H](O)[C@H](O)CCCCCCCCCCCCCC: MP 125.3 °C (via eChemPortal)
- CC1(C)NCCS1 [2,2-Dimethylthiazolidine]: MP 13 °C (via eChemPortal)
- CC(=O)Nc1ccc(C)c(S(=O)(=O)Cl)c1 [5-Acetamido-2-methylbenzenesulphonyl chloride]: MP 96 °C (via OCHEM)
- NC(=O)CCS(=O)(=O)CCCl [3-[(2-chloroethyl)sulfonyl]propanamide]: MP 140 °C (via OCHEM)
- CCCN1C(=O)N=C(O)C1=O [4-Hydroxy-1-propyl-1H-imidazole-2,5-dione]: MP 106 °C (via OCHEM)
- CC(C)C(NC(=O)c1ccc(Cl)cc1)C(=O)O (centres undefined) [2-(4-Chloro-benzoylamino)-3-methyl-butyric acid]: MP 198 °C (via OCHEM)
- O=C(O)c1csc2c1CCCC2 [4,5,6,7-tetrahydro-1-benzothiophene-3-carboxylic acid]: MP 160 °C (via OCHEM)
- ClCc1nnc(-c2ccccc2Cl)o1 [2-(Chloromethyl)-5-(2-chlorophenyl)-1,3,4-oxadiazole]: MP 92 °C (via OCHEM)
- NC(=O)NC(=O)C(Cl)c1ccccc1 (centres undefined) [Chlorphenacemide]: MP 171 °C (via OCHEM)
- CCCNC(=O)C1CNc2ccccc2O1 (centres undefined) [N-propyl-3,4-dihydro-2H-1,4-benzoxazine-2-carboxamide]: MP 130 °C (via OCHEM)
- Nc1ccc(Sc2nc3ccccc3[nH]2)cc1 [4-(1H-benzimidazol-2-ylthio)aniline]: MP 225 °C (via OCHEM)
- CCCCc1nnc(N)o1 [5-Butyl-1,3,4-oxadiazol-2-amine]: MP 140 °C (via OCHEM)
- COc1ccc2c(C)cc(NN)nc2c1 [2-Hydrazinyl-7-methoxy-4-methylquinoline]: MP 251 °C (via OCHEM)
- O=C(O)c1cc([N+](=O)[O-])ccc1I [2-Iodo-5-nitrobenzoic acid]: MP 195 °C (via OCHEM)
- O[C@@H]1OC[C@@H](Cc2ccc3c(c2)OCO3)[C@@H]1Cc1ccc2c(c1)OCO2 [Cubebin]: MP 132 °C (via OCHEM)
- Nc1ncc(C(F)(F)F)cc1Br [3-Bromo-5-(trifluoromethyl)pyridin-2-amine]: MP 99.5 °C (via OCHEM)
- O=C(O)CSCCc1ccccc1 [2-(phenethylthio)acetic acid]: MP 57 °C (via OCHEM)
- Cc1cccc(-n2[nH]nnc2=S)c1 [1-m-Tolyl-1H-tetrazole-5-thiol]: MP 157 °C (via OCHEM)
- BrC1C2CC3CC(C2)CC1C3 (centres undefined) [2-Bromoadamantane]: MP 138.5 °C (via OCHEM)
- c1ccc2cc(SSc3ccc4ccccc4c3)ccc2c1 [2,2'-Disulfanediyldinaphthalene]: MP 140 °C (via OCHEM)
- COc1c(OC)c(OC(=O)C(C)(C)C)c2ccccc2c1OC(=O)C(C)(C)C: MP 179 °C (via OCHEM)
- CC1Oc2ccccc2NC1=O (centres undefined) [2-methyl-2H-1,4-benzoxazin-3(4H)-one]: MP 143 °C (via OCHEM)
- O=C(CCl)Nc1ccc(S(=O)(=O)N2CCOCC2)cc1 [2-Chloro-N-[4-(morpholine-4-sulfonyl)phenyl]acetamide]: MP 146 °C (via OCHEM)
- O=C1CCCCCN1CO [2H-Azepin-2-one, hexahydro-1-(hydroxymethyl)-]: MP 65 °C (via OCHEM)
- CCCOc1ccc2ccccc2c1C=O [2-propoxy-1-naphthaldehyde]: MP 66.5 °C (via OCHEM)
- O=C(O)c1c2c(nc3ccc(Br)cc13)CCCC2 [7-bromo-1,2,3,4-tetrahydroacridine-9-carboxylic acid]: MP 292 °C (via OCHEM)
- Cc1[nH]c(=O)[nH]c(=O)c1CCC(=O)O: MP 307 °C (via OCHEM)
- O=C(O)c1cc2cc(Br)cc(Br)c2o1 [5,7-Dibromo-benzofuran-2-carboxylic acid]: MP 280 °C (via OCHEM)
- NS(=O)(=O)c1ccc(S(=O)(=O)Cl)cc1 [4-sulfamoylbenzenesulfonyl Chloride]: MP 145 °C (via OCHEM)

A selection of 5 entries from above:

* O=C(O)c1cc([N+](=O)[O-])ccc1I [2-Iodo-5-nitrobenzoic acid]: MP 195 °C (via OCHEM)
* BrC1C2CC3CC(C2)CC1C3 (centres undefined) [2-Bromoadamantane]: MP 138.5 °C (via OCHEM)
* NC(=O)NC(=O)C(Cl)c1ccccc1 (centres undefined) [Chlorphenacemide]: MP 171 °C (via OCHEM)
* Cc1ccc(Nc2nc(Nc3ccc(C)cc3)c(N=Nc3ccccc3C(F)(F)F)c(C)c2C#N)cc1: MP 247.1 °C (via eChemPortal)
* CCCNC(=O)C1CNc2ccccc2O1 (centres undefined) [N-propyl-3,4-dihydro-2H-1,4-benzoxazine-2-carboxamide]: MP 130 °C (via OCHEM)